US20240293588A1, “THERAPEUTIC CONJUGATES” (Starpharma Pty Ltd, priority 2020, published 2024)

Assays:
Assay type in all cases: cell-based
MDA-MB-231 cells = assay: GI50 panel (MTT assay), MDA-MB-231; details: MDA-MB-231, MTT
SK-Br-3 cells = assay: GI50 panel (MTT assay), SK-BR-3; details: SK-BR-3, MTT
NCI-N87 cells = assay: GI50 panel (MTT assay), NCI-N87
OE-19 cells = assay: GI50 panel (MTT assay), OE19
SKOV-3 cells = assay: GI50 panel (MTT assay), SKOV-3; details: SKOV-3, MTT
[1] = 72 h, Kadcyla based on estimated weight ADC, footnote: based on MMAE drug equivalents

| Substance | GI50 (MDA-MB-231 cells; [1]) | GI50 (SK-Br-3 cells; [1]) | GI50 (NCI-N87 cells; [1]) | GI50 (OE-19 cells; [1]) | GI50 (SKOV-3 cells; [1]) | % growth inhibition (MDA-MB-231 cells; six days for Herceptin, n = 3) | % growth inhibition (SK-Br-3 cells; six days for Herceptin, n = 3) | % growth inhibition (NCI-N87 cells; six days for Herceptin, n = 3) | % growth inhibition (OE-19 cells; six days for Herceptin, n = 3) | % growth inhibition (SKOV-3 cells; six days for Herceptin, n = 3) |
| --- | --- | --- | --- | --- | --- | --- | --- | --- | --- | --- |
| Kadcyla: marketed comparator; GI50 based on estimated weight ADC | 22.9 nM | 0.04 nM | 0.1 nM | 0.06 nM | 50.7 nM | – | – | – | – | – |
| Trastuzumab [Herceptin] | – | – | – | – | – | 1.7% | 51% | 52% | 62% | 10% |
